# Ab-95 light chain CDR variants: yeast mating affinities

Antigen: PDVDLGDISGINAS, a 14-residue peptide of the SARS-CoV-2 spike HR2 region.

Parent scFv Ab-95: VH joined to VL by the linker GGGGSGGGGSGGGGS. Changes lie in the light chain CDRs alone.
VH: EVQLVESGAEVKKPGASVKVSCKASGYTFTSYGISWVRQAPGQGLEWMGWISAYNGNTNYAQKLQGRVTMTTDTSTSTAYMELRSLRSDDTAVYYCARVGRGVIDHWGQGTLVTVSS
VL: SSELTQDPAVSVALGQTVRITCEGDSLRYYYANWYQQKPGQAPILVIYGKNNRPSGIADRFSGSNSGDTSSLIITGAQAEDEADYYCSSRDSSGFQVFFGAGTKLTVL

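Phage display of a naive human antibody library on the peptide gave the parent. AAYL52 was designed without a model: most single CDR substitutions and a random sample of double and triple ones. AlphaSeq pools MATa yeast showing the antibodies with MATalpha yeast showing the peptide. Binding brings cells together so that they mate, and sequencing counts the barcode pairs among the diploids. Scores were corrected for input abundance and mapped to Kd with protein pairs of known affinity run in the same pool. The assay was run in three technical replicates.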

Each variant is given by its three light chain CDRs, as the data file delimits them; those of the parent are EGDSLRYYYAN, GKNNRPS, SSRDSSGFQVF.
All variants listed here change N51 of the VL, counted from its first residue.
The Kd shown is the geometric mean over detected replicates; a lower Kd is a better binder.
"no signal" marks a missing value. The strain was present, yet no cells mated with the target were sequenced in any replicate, which points to weak or no binding.

For EGDSLRQYYAN | GKLNRPS | SSRDSSGFAVF, the assay gave 3.1 µM (2 of 3 replicates). Variant EGDSLRYYYAN | GKLNRPS | SSRDSAGFQVF showed 4.7 µM (2 of 3 replicates). Variant EGSSLRYYYAN | GKLNRPS | SSRNSSGFQVF showed 11 µM (1 of 3 replicates). Variant EGDALRYYYAN | GKPNRPE | SSRDSSGFQVF showed 18 µM (3 of 3 replicates). Variant EGDSLRYYYAN | GKCNRGS | SSRDSSGFQVH showed 16 µM (2 of 3 replicates). Variant EGDSLRYYYAN | GKPNRPS | SSRDISGFQVP gave no signal (0 of 3 replicates). Variant EGDSLRYYYAR | GRANRPS | SSRDSSGFQVF gave 11 µM (2 of 3 replicates). For EGDYLRYYYAN | GKFNDPS | SSRDSSGFQVF, the assay gave 9.7 µM (1 of 3 replicates). Variant EGDSLRYYYWN | GKSNRCS | SSRDSSGFQVF gave 470 µM (2 of 3 replicates).

With EGDSLRYYYAN | GKYNRPS | TIRDSSGFQVF the result was 16 µM (2 of 3 replicates). With EGDSLRYYYAM | GKKNRPS | SSMDSSGFQVF the result was 11 µM (3 of 3 replicates). Variant EGDSLRYYYAF | GKGNRPS | SSRASSGFQVF showed 6.1 µM (1 of 3 replicates). For EGDSLRYYMAN | GKANRPS | SSRDSSHFQVF, the assay gave 2.3 µM (2 of 3 replicates). For EGDSLRYYYAN | GKFNRPS | SSIISSGFQVF, the assay gave 38 µM (1 of 3 replicates). Variant EGDSLRYYDAN | GLDNRPS | SSRDSSGFQVF gave 8.4 nM (3 of 3 replicates). With EGDSLRYYYAN | GCFNRPS | SSRDSSEFQVF the result was 21 µM (2 of 3 replicates). With EGDSLRYYYAN | GKKNHPS | SARDSSGFQVF the result was 11 µM (2 of 3 replicates). Variant EGDSLRYYYAN | GKQNRPS | SSRHSSGRQVF gave 570 nM (3 of 3 replicates).

For EGDSLRYYYAN | GKANRPS | SSRDSSPEQVF, the assay gave 2.2 µM (3 of 3 replicates). Variant EGDSLRYYYAN | GKKNRPS | SSRDSSKFQEF showed no signal (0 of 3 replicates). For EGDSLRYYYAA | GKINRQS | SSRDSSGFQVF, the assay gave no signal (0 of 3 replicates). Variant EGDSLRDYYAN | GKENHPS | SSRDSSGFQVF showed 4.3 µM (3 of 3 replicates). For EGDSLNYYYAN | AKWNRPS | SSRDSSGFQVF, the assay gave 3.6 µM (3 of 3 replicates). Variant EGDSLRYYYAN | GKLNRPS | SSRDRSGFQDF showed 20 µM (2 of 3 replicates). Variant EGCSLIYYYAN | GKRNRPS | SSRDSSGFQVF showed 9.3 µM (2 of 3 replicates). Variant EGDSLRYYYAN | GKTNRPS | LSRDYSGFQVF gave no signal (0 of 3 replicates). Variant EGASLRYYYAN | GHMNRPS | SSRDSSGFQVF showed 1.0 µM (2 of 3 replicates).

Variant EGDSLRYYYAN | GKYNRPS | WSRDLSGFQVF showed no signal (0 of 3 replicates). For EGDSLRYYYAN | GKDNRPS | SPRDSSGFDVF, the assay gave no signal (0 of 3 replicates). Variant EGDSLRYYYAN | GKSNRPE | SSRDSSQFQVF gave no signal (0 of 3 replicates). With EGDSLMYYSAN | GKWNRPS | SSRDSSGFQVF the result was 12 µM (2 of 3 replicates). With EGDSLRYYYAN | GKDNPPS | SSRDSSGFQVF the result was 7.4 µM (2 of 3 replicates). For EGPSLRYYYAK | GKQNRPS | SSRDSSGFQVF, the assay gave 26 µM (2 of 3 replicates). With EGDSLLYYYAN | GKMNRPS | SSNDSSGFQVF the result was no signal (0 of 3 replicates). For IGDSLRVYYAN | GKANRPS | SSRDSSGFQVF, the assay gave no signal (0 of 3 replicates).

Excerpt, the final 5 entries:

CDR-L1	CDR-L2	CDR-L3	Kd (apparent)	replicates with signal
EGDSLMYYSAN	GKWNRPS	SSRDSSGFQVF	12 µM	2/3
EGDSLRYYYAN	GKDNPPS	SSRDSSGFQVF	7.4 µM	2/3
EGPSLRYYYAK	GKQNRPS	SSRDSSGFQVF	26 µM	2/3
EGDSLLYYYAN	GKMNRPS	SSNDSSGFQVF	no signal	0/3
IGDSLRVYYAN	GKANRPS	SSRDSSGFQVF	no signal	0/3

For reference, the parent read 200 nM as the reference entry and 180 nM as a member of this library.
Background: pairings of library AAYL52 with three empty control strains gave a value in 28% of cases (median 8.2 µM, 5th percentile 800 nM). Values in that range, when seen in few replicates, are hard to tell from nonspecific mating.

Source: Engelhart et al. 2022 (doi:10.1038/s41597-022-01779-4), MIT Lincoln Laboratory and A-Alpha Bio; data file from the FLAb repository.